Measured values published in PubChem BioAssay AID1768 (National Center for Advancing Translational Sciences (NCATS), 2009).
Where “and” joins values, the source holds several entries; their conditions need not be identical. Equal values may be shown once. This is a selection; strong and weak results do not stand in their true shares. Results filed as inconclusive are left out. Calls of active or inactive are those of the source. The call rests on the fitted dose curve; in most records, active means well fitted inhibition curve with a large enough effect in the polarisation, with a control signal flat (not every such curve was filed as active); inconclusive means small, poorly fitted or top-dose-only effect, or effect the other way, or a change in a side signal; inactive means no such curve, though single readings can be large or run the other way; the % refers to the polarisation.
Further: % of control where 0% means no effect.

Protein sequences, listed by entry. Tags and fused reporters are not part of them.
UniProt O00255, whole entry: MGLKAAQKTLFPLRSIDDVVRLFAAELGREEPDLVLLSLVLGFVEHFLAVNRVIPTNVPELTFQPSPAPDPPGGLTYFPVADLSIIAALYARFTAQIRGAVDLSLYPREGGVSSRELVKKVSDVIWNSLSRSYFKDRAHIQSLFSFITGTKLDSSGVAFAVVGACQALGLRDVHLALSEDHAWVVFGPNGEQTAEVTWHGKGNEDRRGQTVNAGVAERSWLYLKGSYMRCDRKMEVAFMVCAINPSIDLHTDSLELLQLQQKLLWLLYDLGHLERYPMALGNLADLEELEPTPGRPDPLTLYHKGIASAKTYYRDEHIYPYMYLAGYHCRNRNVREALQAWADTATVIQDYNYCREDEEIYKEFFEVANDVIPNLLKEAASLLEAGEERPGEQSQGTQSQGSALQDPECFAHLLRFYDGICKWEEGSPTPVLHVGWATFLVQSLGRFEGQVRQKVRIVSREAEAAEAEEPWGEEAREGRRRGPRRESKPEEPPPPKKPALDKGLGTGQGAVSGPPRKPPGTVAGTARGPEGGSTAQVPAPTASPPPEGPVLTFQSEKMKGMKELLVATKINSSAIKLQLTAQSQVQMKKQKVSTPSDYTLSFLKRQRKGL
UniProt Q03164, whole entry partner: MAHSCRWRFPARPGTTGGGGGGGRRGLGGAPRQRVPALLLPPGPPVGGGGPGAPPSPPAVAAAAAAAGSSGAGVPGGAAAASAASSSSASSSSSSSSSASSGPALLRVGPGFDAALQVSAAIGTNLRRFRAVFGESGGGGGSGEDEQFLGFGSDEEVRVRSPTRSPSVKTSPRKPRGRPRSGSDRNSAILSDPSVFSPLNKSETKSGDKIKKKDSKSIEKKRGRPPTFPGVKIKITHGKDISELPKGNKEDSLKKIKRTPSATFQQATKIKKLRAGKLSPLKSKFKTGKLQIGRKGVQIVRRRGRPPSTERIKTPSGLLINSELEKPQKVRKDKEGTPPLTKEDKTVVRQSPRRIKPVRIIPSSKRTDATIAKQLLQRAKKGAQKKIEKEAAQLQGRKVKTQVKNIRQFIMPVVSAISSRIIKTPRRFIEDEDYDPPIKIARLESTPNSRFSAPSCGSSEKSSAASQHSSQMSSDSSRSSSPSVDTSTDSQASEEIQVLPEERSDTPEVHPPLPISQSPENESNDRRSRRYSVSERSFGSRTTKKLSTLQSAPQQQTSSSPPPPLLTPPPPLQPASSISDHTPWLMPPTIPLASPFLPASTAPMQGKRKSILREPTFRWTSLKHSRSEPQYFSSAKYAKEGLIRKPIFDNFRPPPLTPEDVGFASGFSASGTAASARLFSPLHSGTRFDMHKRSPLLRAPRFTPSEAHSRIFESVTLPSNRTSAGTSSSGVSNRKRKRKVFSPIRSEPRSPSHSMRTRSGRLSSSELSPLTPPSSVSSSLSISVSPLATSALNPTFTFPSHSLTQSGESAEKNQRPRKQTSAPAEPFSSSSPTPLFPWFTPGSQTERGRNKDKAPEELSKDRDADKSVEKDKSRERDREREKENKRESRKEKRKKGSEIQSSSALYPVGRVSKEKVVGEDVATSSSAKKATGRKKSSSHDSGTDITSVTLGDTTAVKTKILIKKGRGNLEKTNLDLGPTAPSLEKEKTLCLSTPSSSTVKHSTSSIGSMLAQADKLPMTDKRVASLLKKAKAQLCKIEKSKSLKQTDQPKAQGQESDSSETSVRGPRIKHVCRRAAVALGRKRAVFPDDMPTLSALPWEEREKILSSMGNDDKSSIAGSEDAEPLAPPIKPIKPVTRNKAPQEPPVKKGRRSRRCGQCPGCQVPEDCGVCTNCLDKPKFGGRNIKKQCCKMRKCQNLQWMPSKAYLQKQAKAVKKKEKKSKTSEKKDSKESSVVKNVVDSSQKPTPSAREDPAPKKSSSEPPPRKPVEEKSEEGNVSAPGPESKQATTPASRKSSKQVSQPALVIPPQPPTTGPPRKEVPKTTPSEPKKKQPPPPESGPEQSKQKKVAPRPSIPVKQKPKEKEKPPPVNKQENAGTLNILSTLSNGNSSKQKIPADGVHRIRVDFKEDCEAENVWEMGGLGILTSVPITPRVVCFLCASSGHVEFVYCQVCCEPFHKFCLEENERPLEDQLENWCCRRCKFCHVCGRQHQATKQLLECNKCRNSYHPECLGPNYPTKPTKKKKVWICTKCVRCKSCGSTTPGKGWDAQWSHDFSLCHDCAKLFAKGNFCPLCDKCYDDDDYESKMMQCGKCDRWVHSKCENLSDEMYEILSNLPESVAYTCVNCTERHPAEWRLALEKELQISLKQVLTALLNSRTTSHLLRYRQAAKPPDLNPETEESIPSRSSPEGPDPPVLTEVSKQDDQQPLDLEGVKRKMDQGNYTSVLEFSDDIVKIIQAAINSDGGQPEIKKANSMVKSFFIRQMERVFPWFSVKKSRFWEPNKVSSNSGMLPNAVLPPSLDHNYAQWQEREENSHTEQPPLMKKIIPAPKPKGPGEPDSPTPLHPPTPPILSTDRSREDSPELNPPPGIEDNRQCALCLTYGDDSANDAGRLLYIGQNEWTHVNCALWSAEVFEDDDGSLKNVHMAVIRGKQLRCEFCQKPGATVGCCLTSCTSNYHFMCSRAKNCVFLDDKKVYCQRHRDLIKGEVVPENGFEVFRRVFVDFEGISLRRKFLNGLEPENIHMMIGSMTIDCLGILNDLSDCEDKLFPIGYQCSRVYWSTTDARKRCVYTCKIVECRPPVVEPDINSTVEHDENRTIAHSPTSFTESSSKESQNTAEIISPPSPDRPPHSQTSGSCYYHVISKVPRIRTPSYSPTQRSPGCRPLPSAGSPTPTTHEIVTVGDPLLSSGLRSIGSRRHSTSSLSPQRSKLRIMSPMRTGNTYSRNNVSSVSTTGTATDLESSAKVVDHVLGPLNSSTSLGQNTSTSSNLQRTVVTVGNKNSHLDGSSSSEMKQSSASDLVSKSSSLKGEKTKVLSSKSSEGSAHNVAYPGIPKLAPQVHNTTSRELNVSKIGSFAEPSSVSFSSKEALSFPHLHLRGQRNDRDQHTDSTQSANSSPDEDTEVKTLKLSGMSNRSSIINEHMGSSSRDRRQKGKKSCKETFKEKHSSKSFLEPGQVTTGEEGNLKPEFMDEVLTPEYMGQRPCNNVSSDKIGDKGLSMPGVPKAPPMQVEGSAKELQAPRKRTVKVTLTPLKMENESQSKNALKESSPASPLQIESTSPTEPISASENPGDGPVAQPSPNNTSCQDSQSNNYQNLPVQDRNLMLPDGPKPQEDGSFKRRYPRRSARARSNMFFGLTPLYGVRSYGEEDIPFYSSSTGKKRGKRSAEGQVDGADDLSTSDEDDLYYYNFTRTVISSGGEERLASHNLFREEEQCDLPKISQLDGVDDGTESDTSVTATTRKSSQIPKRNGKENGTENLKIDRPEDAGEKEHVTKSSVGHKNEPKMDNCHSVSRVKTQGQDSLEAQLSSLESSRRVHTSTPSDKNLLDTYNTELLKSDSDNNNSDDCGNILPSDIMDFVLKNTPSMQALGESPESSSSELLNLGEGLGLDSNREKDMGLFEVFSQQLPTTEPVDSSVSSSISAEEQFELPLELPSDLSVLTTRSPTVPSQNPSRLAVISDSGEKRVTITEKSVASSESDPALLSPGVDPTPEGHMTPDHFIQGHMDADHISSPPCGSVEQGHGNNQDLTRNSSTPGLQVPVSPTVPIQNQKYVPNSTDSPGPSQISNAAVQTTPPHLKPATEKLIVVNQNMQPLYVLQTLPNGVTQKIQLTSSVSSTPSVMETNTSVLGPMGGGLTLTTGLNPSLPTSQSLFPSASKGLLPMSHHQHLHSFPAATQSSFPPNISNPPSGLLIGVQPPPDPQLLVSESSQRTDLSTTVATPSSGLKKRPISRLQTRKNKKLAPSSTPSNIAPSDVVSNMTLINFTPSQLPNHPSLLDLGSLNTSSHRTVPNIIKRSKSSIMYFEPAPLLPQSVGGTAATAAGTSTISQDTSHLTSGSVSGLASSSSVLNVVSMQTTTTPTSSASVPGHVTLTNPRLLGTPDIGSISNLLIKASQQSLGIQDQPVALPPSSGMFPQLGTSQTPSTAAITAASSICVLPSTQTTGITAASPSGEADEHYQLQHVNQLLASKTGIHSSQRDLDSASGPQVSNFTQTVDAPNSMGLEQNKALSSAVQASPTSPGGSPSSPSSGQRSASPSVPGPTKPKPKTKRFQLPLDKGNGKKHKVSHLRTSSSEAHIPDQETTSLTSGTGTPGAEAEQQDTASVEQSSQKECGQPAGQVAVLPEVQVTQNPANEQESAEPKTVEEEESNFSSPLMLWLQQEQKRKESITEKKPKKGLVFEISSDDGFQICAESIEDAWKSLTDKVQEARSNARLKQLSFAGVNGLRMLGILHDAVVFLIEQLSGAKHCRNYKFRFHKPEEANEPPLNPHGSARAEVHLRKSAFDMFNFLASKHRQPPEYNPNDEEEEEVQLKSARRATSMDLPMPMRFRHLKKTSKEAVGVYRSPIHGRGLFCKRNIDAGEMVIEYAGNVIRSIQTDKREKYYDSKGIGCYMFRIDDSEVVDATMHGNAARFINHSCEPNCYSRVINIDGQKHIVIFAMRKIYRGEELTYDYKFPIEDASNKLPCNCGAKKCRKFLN

What follows are compounds tested against Menin (Homo sapiens) (UniProt O00255) (assay: qHTS Assay for Inhibitors Targeting the Menin-MLL Interaction in MLL Related Leukemias: Competition With Texas Red Labeled MLL-derived Mutant Peptide). Conditions: fluorescence polarization; at 61.6 µM (top of the series).
With `CN(CCCl)CCCl` the FP activity change, negative = inhibition was inactive: -2.87% and inactive: 2.4%. With `CCC(=O)N(c1ccccc1)C1CCN(CCc2ccccc2)CC1` the FP activity change, negative = inhibition was inactive: -9.35%.
